# Measured values reported in patent publication US9790217B2, “Pyridinyloxy- and phenyloxy-pyrazolyl compounds” (Hoffmann-La Roche Inc., priority 2014, dated 2017).
# Chains of the proteins cited; added tags and fusions are not shown. Residues count along the entry.
# UniProt P15538, 25-503 limits assumed: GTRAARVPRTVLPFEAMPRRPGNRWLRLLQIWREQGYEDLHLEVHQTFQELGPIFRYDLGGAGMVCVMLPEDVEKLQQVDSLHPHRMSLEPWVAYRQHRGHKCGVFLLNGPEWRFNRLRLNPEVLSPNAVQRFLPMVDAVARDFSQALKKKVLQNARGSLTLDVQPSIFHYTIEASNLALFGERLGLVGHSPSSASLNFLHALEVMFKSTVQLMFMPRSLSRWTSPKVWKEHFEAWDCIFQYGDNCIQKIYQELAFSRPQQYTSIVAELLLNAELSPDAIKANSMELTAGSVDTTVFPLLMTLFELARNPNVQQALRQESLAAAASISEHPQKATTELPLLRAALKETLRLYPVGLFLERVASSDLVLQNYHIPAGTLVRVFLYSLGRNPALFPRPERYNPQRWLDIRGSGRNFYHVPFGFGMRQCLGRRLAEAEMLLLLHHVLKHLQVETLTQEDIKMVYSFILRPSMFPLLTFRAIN
# UniProt P19099, 25-503 limits assumed: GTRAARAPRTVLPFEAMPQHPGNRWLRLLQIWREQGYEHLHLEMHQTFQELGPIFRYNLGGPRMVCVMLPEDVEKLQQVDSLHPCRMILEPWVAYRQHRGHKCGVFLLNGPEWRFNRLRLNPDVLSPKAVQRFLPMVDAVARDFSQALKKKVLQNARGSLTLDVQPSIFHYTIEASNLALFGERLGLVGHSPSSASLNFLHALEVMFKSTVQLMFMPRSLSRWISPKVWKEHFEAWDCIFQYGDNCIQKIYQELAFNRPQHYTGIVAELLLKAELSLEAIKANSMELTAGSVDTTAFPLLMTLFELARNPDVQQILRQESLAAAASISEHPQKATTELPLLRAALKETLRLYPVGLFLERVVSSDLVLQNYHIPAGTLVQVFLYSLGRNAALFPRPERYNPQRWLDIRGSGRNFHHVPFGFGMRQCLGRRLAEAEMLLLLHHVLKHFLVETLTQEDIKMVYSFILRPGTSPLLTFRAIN
# Legend:
# human CYP11B1 = human CYP11B1 (Homo sapiens (Human), UniProt P15538); assay: G-402 cellular enzyme assay, human CYP11B1 (cortisol release, HTRF); conditions: read-out: EC50 human CYP11B1; G-402 cells expressing human CYP11B1; 1 μM Deoxycortisol
# From the text: (§1) Herein we identified the use of the G-402 cell line as a host cell to ectopically express (transiently or stably) enzymes of the CYP11 family. Specifically we developed stable G-402 cells expressing ectopically human CYP11B1, human CYP11B2, human CYP11A1, cynmolgus CYP11B1 or cynomolgus CYP11B2 enzyme activity. Importantly the identified cell line G-402 expresses co-factors (adrenodoxin and adrenodoxin reductase) important for the activity of the CYP11 family and no relevant enzyme activity of the CYP11 family (in comparison to H295R cells) was detected in these cells. Therefore the G-402 cell line is uniquely suited as a host cell for the ectopic expression of enzymes from the CYP11 family.
# (§2) G-402 cells can be obtained from ATCC (CRL-1440) and were originally derived from a renal leiomyoblastoma.
# (§3) The expression plasmids contains the ORF for either human/cyno CYP11B1 or CYP11B2 under the control of a suitable promoter (CMV-promoter) and a suitable resistance marker (neomycin). […] Individual cell-clones are then selected and assessed for displaying the desired enzymatic activity using 11-Deoxycorticosterone (Cyp11B2) or 11-Deoxycortisol (Cyp11B1) as a substrate. […]
# (§4) [formula] wherein, A is the maximum y value, B is the EC50 factor determined using XLFit, C is the minimum y value and D is the slope value. […]
# human CYP11B2 = human CYP11B2 (Homo sapiens (Human), UniProt P19099); assay: G-402 cellular enzyme assay, human CYP11B2 (aldosterone release, HTRF); conditions: read-out: EC50 human CYP11B2; G-402 cells expressing human CYP11B2; 1 μM Deoxycorticosterone
# From the text: as §1, §2, §3, §4
structure (smiles),measurement,setting,value
N#Cc1ccc(Oc2cn[nH]c2-c2ccccc2COc2cccnc2)cc1,EC50,human CYP11B1,4300 nM
same,EC50,human CYP11B2,520 nM
